Consider one molecule from BindingDB's records for doi:10.1124/jpet.105.096792 (University of Tours, 2006).

Amino acid sequences for entries named in this document (tags omitted).
UniProt P23977, whole entry: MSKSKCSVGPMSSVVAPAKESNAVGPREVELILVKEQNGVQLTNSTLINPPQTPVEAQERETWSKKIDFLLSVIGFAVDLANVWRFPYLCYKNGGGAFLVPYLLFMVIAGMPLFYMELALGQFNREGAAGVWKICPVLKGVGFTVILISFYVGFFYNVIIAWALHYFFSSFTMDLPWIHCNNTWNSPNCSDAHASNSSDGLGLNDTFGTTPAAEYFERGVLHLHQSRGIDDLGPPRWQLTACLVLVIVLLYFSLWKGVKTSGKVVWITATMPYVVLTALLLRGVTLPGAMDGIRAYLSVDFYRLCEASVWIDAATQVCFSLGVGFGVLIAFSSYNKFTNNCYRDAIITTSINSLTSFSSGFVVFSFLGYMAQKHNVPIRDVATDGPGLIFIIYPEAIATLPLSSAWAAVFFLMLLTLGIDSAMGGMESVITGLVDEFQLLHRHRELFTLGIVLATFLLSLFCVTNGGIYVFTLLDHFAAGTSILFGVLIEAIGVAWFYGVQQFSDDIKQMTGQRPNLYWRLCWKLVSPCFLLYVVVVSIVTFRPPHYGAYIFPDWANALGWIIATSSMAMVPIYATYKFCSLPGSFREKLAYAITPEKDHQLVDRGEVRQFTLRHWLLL

This test deals with Sodium-dependent dopamine transporter (Rattus norvegicus, UniProt P23977).

pKi: −log10 of the molar value.

Usually pKi stands for −log10 of the Ki, conventionally taken in molar units. For `Fc1ccc(C2CCNCC2COc2ccc3c(c2)OCO3)cc1` (stereo unspecified) [NSC_43815], the pKi is 6.00.
